The results in this text go back to PMC10303838, “Atlantic Salmon Gill Epithelial Cell Line (ASG-10) as a Suitable Model for Xenobiotic Biotransformation” (Metabolites, 2023).

Series [1] can be described thus: BZ metabolites in plasma of salmon euthanized with BZ overdose. The conditions noted are these: salmon euthanized with 200 mg/L BZ. The class given is in vivo, Atlantic salmon.
For series [2], the system named is ASG-10. Description: BZ metabolism in ASG-10 (LC-HRMS/MS). As to conditions: 303 µM BZ, 24 h, 45,000 or 90,000 cells/well, LC-HRMS peak areas. The format is in vitro ADME, Atlantic salmon (Salmo salar).

Take “Benzocaine hydroxylamine glucuronide [BZ(O)GlcA]”: the “BZ metabolites in salmon plasma” value in series [1] is listed as “presence”. Besides, the “BZ metabolites produced in ASG-10 cells” value was “presence” in series [2] and “dependency on cell density” in series [2] (listed as BZ(O)GLcA).
